The values below come from PubChem BioAssay AID2599 (Sanford-Burnham Center for Chemical Genomics, 2010).

The chains behind the UniProt entries cited, without tags or fusion partners. Where a name states a change or a piece, a line headed by the entry shows the natural chain unless it says otherwise.
UniProt Q9GZR1: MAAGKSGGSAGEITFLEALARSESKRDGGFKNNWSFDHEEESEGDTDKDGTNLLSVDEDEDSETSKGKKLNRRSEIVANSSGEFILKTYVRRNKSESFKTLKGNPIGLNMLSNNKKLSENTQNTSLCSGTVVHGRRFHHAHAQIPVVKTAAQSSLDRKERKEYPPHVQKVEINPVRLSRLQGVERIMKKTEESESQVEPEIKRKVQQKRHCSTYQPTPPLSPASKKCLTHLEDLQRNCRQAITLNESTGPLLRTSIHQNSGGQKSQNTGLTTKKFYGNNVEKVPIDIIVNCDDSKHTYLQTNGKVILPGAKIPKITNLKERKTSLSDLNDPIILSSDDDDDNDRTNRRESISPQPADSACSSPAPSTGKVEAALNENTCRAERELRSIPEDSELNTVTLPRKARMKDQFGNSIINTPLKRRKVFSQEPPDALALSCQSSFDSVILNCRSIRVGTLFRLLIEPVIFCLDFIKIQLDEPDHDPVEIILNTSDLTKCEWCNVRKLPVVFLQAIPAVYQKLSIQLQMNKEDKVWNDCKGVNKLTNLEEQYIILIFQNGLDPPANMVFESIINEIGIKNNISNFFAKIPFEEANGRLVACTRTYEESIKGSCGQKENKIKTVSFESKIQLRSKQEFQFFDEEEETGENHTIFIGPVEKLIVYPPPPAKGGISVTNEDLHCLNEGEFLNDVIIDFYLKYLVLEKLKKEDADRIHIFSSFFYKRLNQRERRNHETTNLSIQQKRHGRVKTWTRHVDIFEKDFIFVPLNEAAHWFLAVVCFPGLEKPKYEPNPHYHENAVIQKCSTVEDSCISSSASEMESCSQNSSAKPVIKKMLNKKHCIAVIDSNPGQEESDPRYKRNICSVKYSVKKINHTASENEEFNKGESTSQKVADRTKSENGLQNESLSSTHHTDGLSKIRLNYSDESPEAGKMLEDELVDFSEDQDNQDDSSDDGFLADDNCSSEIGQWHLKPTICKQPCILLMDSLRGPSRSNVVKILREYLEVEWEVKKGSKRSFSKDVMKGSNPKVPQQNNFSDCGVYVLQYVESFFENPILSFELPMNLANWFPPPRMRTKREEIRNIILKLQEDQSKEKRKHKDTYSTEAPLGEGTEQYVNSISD

Each structure is given as a SMILES string. Only a part is listed here, and it is no random draw. The source made the active and inactive calls.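 The calls were made as follows: active = inhibition above about 50% at the single tested dose (limit read from the data); inactive = the rest.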

This assay has as its target Sentrin-specific protease 6 (Homo sapiens) (UniProt Q9GZR1). Kind of assay: inhibition of human SENP6 catalytic domain – biochemical, luminescence, uHTS, primary screen (AID 2599).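 Also: plate controls were DMSO wells with enzyme for no effect and DMSO wells lacking enzyme for full effect.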 The settings on record: Recombinant SENP6 catalytic domain, aminoluciferin luminescence; at 10 µM; stronger effect = higher value.
Usually inhibition stands for the relative decrease from the control value, in per cent. On to `Cc1ccc(OP(=O)(Nc2ccccn2)Oc2ccc(C)cc2)cc1`, for which the inhibition is inactive: -17.5%.

Take `COC(=O)c1cc2c(s1)N=C(c1ccccc1)N(C)P2(=O)N1CCOCC1` (centres undefined): the inhibition is inactive: -6.53%.

As to `CCC(=O)N1C2C3N(C(=O)CC)C1C1N(C(=O)CC)C(C(N1C(=O)CC)N3C(=O)CC)N2C(=O)CC`, the inhibition is inactive: -20.9%.

For `O=C(OC1CN2CCC1CC2)c1ccccc1` (centres undefined), the inhibition was inactive: -8.43%.

For `CN(C)C(=O)Oc1noc2ccccc12`, the inhibition was inactive: -1.52%.

On to `CC(NC(=O)COC(=O)C(O)(c1ccccc1)c1ccccc1)c1ccccc1` (centres undefined), for which the inhibition was inactive: -6.3%.

For the molecule `Cc1ccccc1OP(=O)(Nc1ccccn1)Oc1ccccc1C`, the inhibition is inactive: -14.9%.

As to `CC(=O)Nc1ccc([As](=O)(O)O)cc1`, the inhibition was inactive: -30.4%.

Take `O=C(O)c1ccccc1[As](=O)(O)O`: the inhibition was inactive: -17.1%.

For `O=P(Nc1nc2ccc(Cl)cc2s1)(c1ccccc1)c1ccccc1`, the inhibition was inactive: -30.3%.

With `Cc1ccc(NP(=O)(Oc2ccccc2F)Oc2ccccc2F)nc1`, the inhibition was inactive: -10.5%.

For the molecule `CN(C(=O)Cc1ccc(Cl)c(Cl)c1)[C@H]1CCCC[C@@H]1N1CCCC1`, the inhibition was inactive: 3.56%.

With `Cc1cc(SC(NC(=O)c2ccc(F)cc2)C(Cl)(Cl)Cl)ncn1` (centres undefined), the inhibition was inactive: -13.4%.

For `CCOP(=O)(Nc1ccccc1)OCC`, the inhibition is inactive: -2.62%.

`O=[N+]([O-])c1cc([N+](=O)[O-])c(CCN2CCOCC2)c([N+](=O)[O-])c1`: the inhibition was inactive: 17.9%.

Regarding `CCN(N=Nc1nonc1N)c1nonc1N`, the inhibition is inactive: 9.17%.

On to `NC(=O)c1cc([N+](=O)[O-])cc([N+](=O)[O-])c1N`, for which the inhibition was inactive: -5.21%.

For the molecule `Cc1ccc(N/C(=N/P(=O)(N2CCOCC2)N2CCOCC2)N2CCOCC2)cc1`, the inhibition is inactive: 8.9%.

With `CN(C(=O)Cc1ccc(Cl)c(Cl)c1)[C@H]1CCCC[C@H]1N1CCCC1`, the inhibition is inactive: -4.53%.

Turning to `Cc1ccc(OP(=O)(Nc2nccs2)Oc2ccc(C)cc2)cc1`, the inhibition is inactive: -16.8%.

Consider `COc1ccccc1OP(=O)(Nc1ccc(C)cn1)Oc1ccccc1OC`, for which the inhibition is inactive: -1.15%.

On to `CN1CCCC(OC(=O)C(c2ccccc2)c2ccccc2)C1` (centres undefined), for which the inhibition is inactive: -14%.

Turning to `Clc1ccc(Cl)c(NC2=NCC(CBr)S2)c1` (centres undefined), the inhibition was inactive: -7.28%.

Regarding `Nc1cc(N)c2nonc2c1[N+](=O)[O-]`, the inhibition is inactive: 24.9%.

As to `CC(C)CC(=O)NC(Sc1ccc(Cl)cc1)C(Cl)(Cl)Cl` (centres undefined), the inhibition was inactive: 3.24%.

On to `O=C(NC(Sc1ccncn1)C(Cl)(Cl)Cl)c1ccccc1` (centres undefined), for which the inhibition is inactive: 3.9%.

On to `Cc1c2non([O-])c-2c(C)[n+](=O)[n+]1[O-]`, for which the inhibition is inactive: 3.63%.

`Oc1ccccc1CNc1ccccn1`: the inhibition is inactive: 4.03%.

Consider `COc1ccc(C2=NCC(CBr)S2)cc1` (centres undefined), for which the inhibition was inactive: -2.09%.

With `O=[N+]([O-])c1cccc2n[nH]nc12`, the inhibition was inactive: -15%.

`CC(=O)N1C2C3N(C(C)=O)C1C1N(C(C)=O)C(C(N1C(C)=O)N3C(C)=O)N2C(C)=O`: the inhibition was inactive: -20.3%.

For `CCc1nc2c(n1)c1c(non1O)c1c2no[n+]1[O-]`, the inhibition is inactive: 7.31%.

With `O=[N+]([O-])c1cc([N+](=O)[O-])c(CCNc2ccccc2)c([N+](=O)[O-])c1`, the inhibition was inactive: 9.54%.

Consider `Cc1ccc(NP(=O)(Oc2ccccc2)Oc2ccccc2)nc1`, for which the inhibition was inactive: 9.37%.

As to `C[N+]1=C2C=CC=CC=C2SC12C([N+](=O)[O-])=CC([N+](=O)[O-])=C[C-]2[N+](=O)[O-]` (centres undefined), the inhibition is inactive: -13.1%.

On to `Nc1ccc([As](=O)(O)c2ccc(N)cc2)cc1`, for which the inhibition was inactive: 2.7%.

Consider `CCN(/C(=N/P(=O)(N1CCOCC1)N1CCOCC1)N1CCOCC1)c1ccc(OC)cc1`, for which the inhibition is inactive: -17.5%.

On to `CN(C)C(=O)OCCc1n(C)cc[n+]1C`, for which the inhibition is inactive: -7.16%.

As to `CC(C)=N/N=C(\N)N[N+](=O)[O-]`, the inhibition is inactive: -25.6%.

In the case of `CC1CCN(C(=O)Oc2c(Cl)cc(Cl)c3cccnc23)CC1`, the inhibition is inactive: 0.073%.

On to `O=C(Nc1cc([As](=O)(O)O)ccc1O)c1ccccc1`, for which the inhibition was inactive: -2.5%.

`CC(C)(C)C(=O)NC(Sc1ccncn1)C(Cl)(Cl)Cl` (centres undefined): the inhibition was inactive: 8.76%.

With `O=[N+]([O-])c1ncn(CCn2ncnc2[N+](=O)[O-])n1`, the inhibition was inactive: 21.4%.

Regarding `O=[N+]([O-])c1cccc(NC2=NCC(CBr)S2)c1` (centres undefined), the inhibition is inactive: 2.65%.
